Measured values: patent US10167284B2, “Spirocyclic compounds as agonists of the muscarinic M1 receptor and/or M4 receptor” (HEPTARES THERAPEUTICS LIMITED, priority 2015, dated 2019)

Sequences of proteins named here, by UniProt entry; tags and fusion partners are left off.
UniProt P08173, whole entry: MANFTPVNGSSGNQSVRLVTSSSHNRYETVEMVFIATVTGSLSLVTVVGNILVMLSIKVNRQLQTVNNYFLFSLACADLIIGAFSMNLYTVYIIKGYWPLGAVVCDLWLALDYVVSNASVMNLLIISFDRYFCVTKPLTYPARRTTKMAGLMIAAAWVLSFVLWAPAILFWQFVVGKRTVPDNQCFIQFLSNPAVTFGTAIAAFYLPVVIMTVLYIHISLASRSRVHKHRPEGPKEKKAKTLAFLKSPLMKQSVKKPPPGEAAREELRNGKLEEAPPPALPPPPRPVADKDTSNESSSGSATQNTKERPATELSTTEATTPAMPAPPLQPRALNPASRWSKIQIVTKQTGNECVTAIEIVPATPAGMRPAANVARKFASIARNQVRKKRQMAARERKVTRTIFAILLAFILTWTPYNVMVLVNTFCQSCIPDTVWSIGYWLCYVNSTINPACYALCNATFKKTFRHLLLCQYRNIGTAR
UniProt P11229, whole entry: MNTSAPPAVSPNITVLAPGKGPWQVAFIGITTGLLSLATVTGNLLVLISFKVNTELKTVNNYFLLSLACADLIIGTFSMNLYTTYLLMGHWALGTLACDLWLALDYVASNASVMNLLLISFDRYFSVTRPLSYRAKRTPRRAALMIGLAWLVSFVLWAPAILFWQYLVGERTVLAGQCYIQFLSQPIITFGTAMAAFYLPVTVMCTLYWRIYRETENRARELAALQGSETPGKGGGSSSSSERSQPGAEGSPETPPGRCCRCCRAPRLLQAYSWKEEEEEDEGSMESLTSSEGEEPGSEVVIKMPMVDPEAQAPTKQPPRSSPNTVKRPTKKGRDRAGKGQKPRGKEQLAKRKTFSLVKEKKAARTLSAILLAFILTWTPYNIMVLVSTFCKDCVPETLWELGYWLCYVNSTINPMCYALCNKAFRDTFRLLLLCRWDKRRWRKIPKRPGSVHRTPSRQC
UniProt P08172, whole entry: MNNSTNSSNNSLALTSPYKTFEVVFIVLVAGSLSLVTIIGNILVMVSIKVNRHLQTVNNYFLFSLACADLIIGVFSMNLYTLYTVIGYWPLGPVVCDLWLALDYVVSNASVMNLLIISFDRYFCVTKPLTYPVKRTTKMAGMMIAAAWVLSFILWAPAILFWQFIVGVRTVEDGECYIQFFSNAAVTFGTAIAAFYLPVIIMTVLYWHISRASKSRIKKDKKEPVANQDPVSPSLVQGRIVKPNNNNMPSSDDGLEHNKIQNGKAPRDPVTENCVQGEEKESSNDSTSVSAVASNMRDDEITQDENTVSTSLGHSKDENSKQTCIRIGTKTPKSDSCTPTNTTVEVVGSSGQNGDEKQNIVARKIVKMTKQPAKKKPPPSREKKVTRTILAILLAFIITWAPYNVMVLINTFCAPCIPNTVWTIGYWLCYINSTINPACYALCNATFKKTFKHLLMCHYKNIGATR
UniProt P20309, whole entry: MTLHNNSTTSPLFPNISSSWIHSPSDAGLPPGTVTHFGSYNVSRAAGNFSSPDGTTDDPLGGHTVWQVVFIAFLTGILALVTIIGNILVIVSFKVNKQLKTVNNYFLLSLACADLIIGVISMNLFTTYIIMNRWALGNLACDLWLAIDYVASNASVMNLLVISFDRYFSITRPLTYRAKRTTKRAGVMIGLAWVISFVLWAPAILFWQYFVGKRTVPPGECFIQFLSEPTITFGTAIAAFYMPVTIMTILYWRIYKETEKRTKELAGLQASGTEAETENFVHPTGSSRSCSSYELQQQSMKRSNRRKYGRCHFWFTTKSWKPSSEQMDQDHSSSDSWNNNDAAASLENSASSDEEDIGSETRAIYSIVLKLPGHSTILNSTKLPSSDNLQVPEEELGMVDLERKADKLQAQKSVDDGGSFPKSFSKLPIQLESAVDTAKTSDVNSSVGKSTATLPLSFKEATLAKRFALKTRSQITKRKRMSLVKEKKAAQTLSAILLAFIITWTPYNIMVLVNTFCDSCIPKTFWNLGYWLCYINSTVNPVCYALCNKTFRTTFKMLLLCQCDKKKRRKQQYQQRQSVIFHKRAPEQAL

Tests used:
[1] = molecular target: human muscarinic M4 receptor (Homo sapiens, UniProt P08173); test: Alphascreen Surefire phospho-ERK1/2 functional assay, M4; assay type: cell-based; details: CHO cells stably expressing human M4; for M4 % Emax cf. ACh: Emax relative to ACh; for pEC50 M4: phospho-ERK1/2
[2] = molecular target: human muscarinic M1 receptor (Homo sapiens, UniProt P11229); test: Alphascreen Surefire phospho-ERK1/2 functional assay, M1; details: CHO cells stably expressing human M1; for M1 % Emax cf. ACh: Emax relative to ACh; for pEC50 M1: phospho-ERK1/2
[3] = molecular target: human muscarinic M2 receptor (Homo sapiens, UniProt P08172); test: Alphascreen Surefire phospho-ERK1/2 functional assay, M2; details: CHO cells stably expressing human M2
[4] = molecular target: human muscarinic M3 receptor (Homo sapiens, UniProt P20309); test: Alphascreen Surefire phospho-ERK1/2 functional assay, M3; details: CHO cells stably expressing human M3

Compound | M4 % Emax cf. ACh [1] | pEC50 M4 [1] | M1 % Emax cf. ACh [2] | pEC50 M1 [2] | M2 % Emax cf. ACh ([3]; Emax relative to ACh) | pEC50 M2 ([3]; phospho-ERK1/2) | M3 % Emax cf. ACh ([4]; Emax relative to ACh) | pEC50 M3 ([4]; phospho-ERK1/2)
CCCC(=O)N1CCC2(CC(N3CCC4(CC3)CNC(=O)O4)C2)C1 (single isomer, unassigned) | (91) % | 6.1 | (66) % | 6.0 |  |  |  | 
COC(=O)N1CCC2(CC(N3CCC4(CC3)CNC(=O)N4)C2)C1 (single isomer, unassigned) | (68) % | 5.5 | (113) % | 5.6 |  |  |  | 
O=C1NCC2(CCN(C3CC4(CCN(C(=O)OCCF)C4)C3)CC2)O1 (single isomer, unassigned) | (74) % | 6.4 | (50) % | 6.1 |  |  |  | 
[2H]C([2H])([2H])N1C(=O)CC2(CCN(C3CC4(CCN(C(=O)OCC)C4)C3)CC2)N1CC (single isomer, unassigned) | (51) % | 6.1 | (6) % | <4.7 |  |  |  | 
[2H]C([2H])([2H])N1C(=O)CC2(CCN(C3CC4(CCN(C(=O)OCC)C4)C3)CC2)N1CCC (single isomer, unassigned) | (111) % | 7.4 | (86) % | 6.2 |  |  |  | 
[2H]C([2H])([2H])N1C(=O)OC2(CCN(C3CC4(CCN(C(=O)OCC)C4)C3)CC2)C1CC (single isomer, unassigned) | (76) % | 7.6 | (90) % | 6.9 | (3) % | <4.7 | (3) % | <4.7
